Source: patent publication US9212182B2, “Bicyclic sulfonamide compounds as sodium channel inhibitors” (AMGEN INC., priority 2013, dated 2015)

Amino acid sequences for entries named in this document (tags omitted).
UniProt Q15858, whole entry: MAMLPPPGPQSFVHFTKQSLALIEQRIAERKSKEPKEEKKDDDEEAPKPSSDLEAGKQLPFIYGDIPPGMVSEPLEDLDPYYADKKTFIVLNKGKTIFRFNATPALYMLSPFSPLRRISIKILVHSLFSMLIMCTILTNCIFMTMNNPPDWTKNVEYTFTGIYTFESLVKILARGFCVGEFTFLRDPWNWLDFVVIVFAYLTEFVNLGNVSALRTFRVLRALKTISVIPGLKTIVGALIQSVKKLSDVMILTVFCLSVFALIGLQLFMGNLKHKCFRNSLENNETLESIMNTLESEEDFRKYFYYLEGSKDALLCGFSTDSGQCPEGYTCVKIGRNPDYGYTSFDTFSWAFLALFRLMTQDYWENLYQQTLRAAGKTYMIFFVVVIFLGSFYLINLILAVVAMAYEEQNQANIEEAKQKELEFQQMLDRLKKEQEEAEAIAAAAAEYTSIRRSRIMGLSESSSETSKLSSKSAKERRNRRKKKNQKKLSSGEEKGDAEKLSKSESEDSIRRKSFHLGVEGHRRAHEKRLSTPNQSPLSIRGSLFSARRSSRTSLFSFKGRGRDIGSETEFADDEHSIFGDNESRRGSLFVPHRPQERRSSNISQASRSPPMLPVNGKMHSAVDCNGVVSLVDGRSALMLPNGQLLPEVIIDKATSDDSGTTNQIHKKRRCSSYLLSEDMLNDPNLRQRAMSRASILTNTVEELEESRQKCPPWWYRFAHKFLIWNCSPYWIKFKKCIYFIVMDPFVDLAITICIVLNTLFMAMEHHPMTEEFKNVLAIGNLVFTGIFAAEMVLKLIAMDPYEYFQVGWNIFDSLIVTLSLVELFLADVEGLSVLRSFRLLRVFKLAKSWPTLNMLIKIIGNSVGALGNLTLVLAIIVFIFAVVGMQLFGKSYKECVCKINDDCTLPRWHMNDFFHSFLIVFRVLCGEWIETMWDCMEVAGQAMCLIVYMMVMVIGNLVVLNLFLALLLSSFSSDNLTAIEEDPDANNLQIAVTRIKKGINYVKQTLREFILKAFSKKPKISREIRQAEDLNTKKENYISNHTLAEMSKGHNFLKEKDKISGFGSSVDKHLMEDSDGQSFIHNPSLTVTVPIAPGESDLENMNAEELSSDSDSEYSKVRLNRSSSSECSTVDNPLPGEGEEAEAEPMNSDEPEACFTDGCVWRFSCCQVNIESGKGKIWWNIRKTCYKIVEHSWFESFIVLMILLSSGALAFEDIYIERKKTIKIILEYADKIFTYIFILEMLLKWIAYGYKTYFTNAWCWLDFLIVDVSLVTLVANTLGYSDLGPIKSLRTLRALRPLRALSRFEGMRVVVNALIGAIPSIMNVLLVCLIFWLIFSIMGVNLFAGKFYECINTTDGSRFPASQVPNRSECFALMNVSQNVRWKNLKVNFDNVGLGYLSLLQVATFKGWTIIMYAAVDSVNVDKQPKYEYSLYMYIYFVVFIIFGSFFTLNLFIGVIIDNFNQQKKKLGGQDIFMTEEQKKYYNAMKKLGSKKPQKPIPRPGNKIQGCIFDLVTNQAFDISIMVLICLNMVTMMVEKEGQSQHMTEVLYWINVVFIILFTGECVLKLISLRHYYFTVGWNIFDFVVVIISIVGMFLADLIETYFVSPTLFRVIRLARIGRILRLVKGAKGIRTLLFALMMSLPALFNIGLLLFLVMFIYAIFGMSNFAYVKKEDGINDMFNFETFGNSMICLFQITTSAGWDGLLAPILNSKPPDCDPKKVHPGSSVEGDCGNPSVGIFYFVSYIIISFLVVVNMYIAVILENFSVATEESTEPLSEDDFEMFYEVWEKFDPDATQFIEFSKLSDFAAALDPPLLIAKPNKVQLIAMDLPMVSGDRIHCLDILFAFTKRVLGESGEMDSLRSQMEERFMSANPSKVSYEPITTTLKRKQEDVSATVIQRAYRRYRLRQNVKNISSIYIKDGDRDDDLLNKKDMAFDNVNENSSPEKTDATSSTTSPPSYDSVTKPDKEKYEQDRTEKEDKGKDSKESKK

target: Nav 1.7 (Homo sapiens (Human), UniProt Q15858); assay: in-vitro Nav 1.7 PX (IC50); assay type: cell-based; details: not given

Structure (SMILES)	IC50 [nM]
COc1cc(-c2cccc(F)c2)c(Cl)cc1-n1c(=O)ccc2cc(S(=O)(=O)Nc3ccncn3)ccc21 (atropisomer, axis not shown; (P)) [Example 465, (P)-1-(2-chloro-3′-fluoro-5-methoxy-[1,1′-biphenyl]-4-yl)-2-oxo-N-(pyrimidin-4-yl)-1,2-dihydroquinoline-6-sulfonamide]	17

same assay, conditions: in-vitro Nav 1.7 PX data

IC50 [nM]	Structure (SMILES)
19	COc1cc(-c2cc(C#N)ccc2C)c(F)cc1-n1c(=O)ccc2cc(S(=O)(=O)Nc3ccon3)ccc21 [Example 717, 1-(5′-cyano-2-fluoro-5-methoxy-2′-methyl-4-biphenylyl)-N-3-isoxazolyl-2-oxo-1,2-dihydro-6-quinolinesulfonamide]
19	COc1ccc(Cl)c(-c2cc(OC)c(-n3c(=O)ccc4cc(S(=O)(=O)Nc5ccon5)ccc43)cc2F)c1 [Example 726, 1-(2′-chloro-2-fluoro-5,5′-dimethoxy-4-biphenylyl)-N-3-isoxazolyl-2-oxo-1,2-dihydro-6-quinolinesulfonamide]
17	COc1ccc(-c2cc(F)cc(Cl)c2)cc1-n1c(=O)ccc2cc(S(=O)(=O)Nc3ccon3)ccc21 [Example 849, 1-(3′-chloro-5′-fluoro-4-methoxy-3-biphenylyl)-N-3-isoxazolyl-2-oxo-1,2-dihydro-6-quinolinesulfonamide]
19	COc1cc(-c2ccc(C(F)(F)F)cc2)ccc1-n1c(=O)ccc2cc(S(=O)(=O)Nc3ccon3)ccc21 [Example 1013, N-3-isoxazolyl-1-(3-methoxy-4′-(trifluoromethyl)-4-biphenylyl)-2-oxo-1,2-dihydro-6-quinolinesulfonamide]
19	COc1nc(-c2ccc(Cl)c(C)c2)c(Cl)cc1-n1c(=O)ccc2cc(S(=O)(=O)Nc3ccon3)ccc21 [Example 1084, 1-(5-chloro-6-(4-chloro-3-methylphenyl)-2-methoxy-3-pyridinyl)-N-3-isoxazolyl-2-oxo-1,2-dihydro-6-quinolinesulfonamide]

Continued, compound first:

Structure (SMILES)	IC50 [nM]
COc1ccc(C)c(-c2cc(OC)c(-n3c(=O)ccc4cc(S(=O)(=O)Nc5ccon5)ccc43)cc2F)c1 [Example 724, 1-(2-fluoro-5,5′-dimethoxy-2′-methyl-4-biphenylyl)-N-3-isoxazolyl-2-oxo-1,2-dihydro-6-quinolinesulfonamide]	17
COc1cc(Cl)cc(-c2ccc(OC)c(-n3c(=O)ccc4cc(S(=O)(=O)Nc5ccon5)ccc43)c2)c1 [Example 862, 1-(3′-chloro-4,5′-dimethoxy-3-biphenylyl)-N-3-isoxazolyl-2-oxo-1,2-dihydro-6-quinolinesulfonamide]	19
COc1cc(-c2ccc(F)c(C)c2)c(F)cc1-n1c(=O)ccc2cc(S(=O)(=O)Nc3cccnn3)ccc21 [Example 941, 1-(2,4′-difluoro-5-methoxy-3′-methyl-4-biphenylyl)-2-oxo-N-3-pyridazinyl-1,2-dihydro-6-quinolinesulfonamide]	17
COc1cc(CC2CCCCC2)c(F)cc1-n1c(=O)ccc2cc(S(=O)(=O)Nc3ccon3)ccc21 [Example 1079, 1-(4-(cyclohexylmethyl)-5-fluoro-2-methoxyphenyl)-N-3-isoxazolyl-2-oxo-1,2-dihydro-6-quinolinesulfonamide]	17

same assay, conditions: in-vitro Nav 1.7 PX data (PatchXpress)

IC50 [nM]	Structure (SMILES)
19	COc1ccc(Cl)cc1-c1ccc(-n2c(=O)ccc3cc(S(=O)(=O)Nc4ccon4)ccc32)c(OC)c1 [Example 1035, 1-(5′-chloro-2′,3-dimethoxy-4-biphenylyl)-N-3-isoxazolyl-2-oxo-1,2-dihydro-6-quinolinesulfonamide]
19	COc1cc(-c2ccc(Cl)cc2F)ccc1-n1c(=O)ccc2cc(S(=O)(=O)Nc3ccon3)ccc21 [Example 1062, 1-(4′-chloro-2′-fluoro-3-methoxy-4-biphenylyl)-N-3-isoxazolyl-2-oxo-1,2-dihydro-6-quinolinesulfonamide]
19	COc1cc(-c2cc(Cl)ccc2C)ccc1-n1c(=O)ccc2cc(S(=O)(=O)Nc3cccnn3)ccc21 [Example 1066, 1-(5′-chloro-3-methoxy-2′-methyl-4-biphenylyl)-2-oxo-N-3-pyridazinyl-1,2-dihydro-6-quinolinesulfonamide]

same assay, conditions: in-vitro Nav 1.7 PX data, Table 4

IC50 [nM]	Structure (SMILES)
19	COc1cc(-c2cc(F)c(F)c(F)c2)c(F)cc1-n1c(=O)ccc2cc(S(=O)(=O)Nc3ccon3)ccc21 (atropisomer, axis not shown; (P)) [Example 1164, (P)—N-3-isoxazolyl-2-oxo-1-(2,3′,4′,5′-tetrafluoro-5-methoxy-4-biphenylyl)-1,2-dihydro-6-quinolinesulfonamide]

same assay, conditions: in-vitro PatchXpress (PX)

IC50 [nM]	Structure (SMILES)
17	COc1cc(-c2ccc(C)c(F)c2)c(F)cc1-n1c(=O)ccc2cc(S(=O)(=O)Nc3ccon3)ccc21 (atropisomer, axis not shown; (P)) [Example 510, (P)-1-(2,3′-difluoro-5-methoxy-4′-methyl-4-biphenylyl)-N-3-isoxazolyl-2-oxo-1,2-dihydro-6-quinolinesulfonamide]
